Experimental data as given in patent US4621057A (Noda Institute for Scientific Research, priority 1983, dated 1986).

Tests used:
[1] = Relative activity of the purified enzyme; conditions: purified enzyme of Example 1
[2] = polyacrylamide gel isolectric focusing method

N-acetylhexosamine oxidase
Relative activity [1]: 15.5 unit/mg protein
activity retained after heat treatment (10 minutes heat treatment at 65° C.): retains about half of its activity
temperature at which deactivation begins (10 minutes heat treatment, potassium phosphate buffer solution of pH 6.8): 45 °C
isoelectric point [2]: 8.0
